Results reported in patent US9045445B2, “Glycine transporter-1 inhibitors, methods of making them, and uses thereof” (Albany Molecular Research, Inc., priority 2010, dated 2015).
Counter-ions that a name gives are not always drawn.

Target: T1, glycine transporter-1 (GlyT-1) (Homo sapiens, UniProt P48067)
T1 construct: JAR cells (ATCC#HTB-144), which endogenously express GlyT-1; host or cells: JAR human choriocarcinoma cells
T1 sequence (P48067 1-706): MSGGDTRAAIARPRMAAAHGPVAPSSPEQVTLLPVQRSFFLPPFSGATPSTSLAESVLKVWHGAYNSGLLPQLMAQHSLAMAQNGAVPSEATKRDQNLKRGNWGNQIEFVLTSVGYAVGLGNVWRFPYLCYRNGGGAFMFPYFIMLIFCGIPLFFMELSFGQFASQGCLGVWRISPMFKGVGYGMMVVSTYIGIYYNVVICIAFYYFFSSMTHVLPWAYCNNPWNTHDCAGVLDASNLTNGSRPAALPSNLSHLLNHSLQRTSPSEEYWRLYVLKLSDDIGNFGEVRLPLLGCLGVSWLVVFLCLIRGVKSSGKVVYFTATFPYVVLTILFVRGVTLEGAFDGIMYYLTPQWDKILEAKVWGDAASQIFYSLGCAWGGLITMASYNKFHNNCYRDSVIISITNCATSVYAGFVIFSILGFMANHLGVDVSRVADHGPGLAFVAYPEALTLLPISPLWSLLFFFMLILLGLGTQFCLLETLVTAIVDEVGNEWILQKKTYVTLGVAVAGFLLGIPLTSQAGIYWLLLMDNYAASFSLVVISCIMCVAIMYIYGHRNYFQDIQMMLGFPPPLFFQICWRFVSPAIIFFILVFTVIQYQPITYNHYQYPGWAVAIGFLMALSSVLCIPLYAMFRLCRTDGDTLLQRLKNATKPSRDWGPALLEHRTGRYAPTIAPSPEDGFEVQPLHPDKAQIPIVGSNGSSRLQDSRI
Experiment: [14C]glycine uptake assay in JAR cells endogenously expressing GlyT-1 (scintillation proximity)
Format: cell-based
Conditions: [14C]glycine 5 μM, 3 hour incubation
Description: The inhibitory activity of compounds of the invention against the glycine transporter-1 (GlyT-1) can be determined by the following scintillation proximity assay. The potency of each compound was assessed in inhibiting the uptake of radiolabeled glycine ([^14C]glycine) using the human choriocarcinoma cell line, JAR cells (ATCC#HTB-144), which endogenously express GlyT-1. In brief, 50,000 JARS cells were plated per well of tissue culture treated 96-well Cytostar-T plate (PerkinElmer) in RPMI media supplemented with 10% heat inactivated FBS and allowed to attach overnight at 37° C. and 5% CO2. Compounds were serially diluted 3-fold in DMSO generating a nine (9) data point response curve for each compound. Two replicates were performed per determination. The compounds were then diluted into Uptake Buffer (10 mM Hepes, 120 mM NaCl, 2 mM KCl, 1 mM CaCl2 and 1 mM MgCl2, 5 mM Alanine, pH 7.4) with a final DMSO concentration of 0.75% (v/v). […] Following a 3 hour incubation period at 37° C. and 5% CO2, the plates were sealed and placed at room temperature in the dark for 15 minutes prior to quantification of incorporated radioactivity using a MicroBeta Trilux scintillation plate reader (PerkinElmer). […]

CCCS(=O)(=O)N1CCN(C2(CNC(=O)c3ccccc3)CCCCC2)CC1 [compound 24, N-((1-(4-(Propylsulfonyl)piperazin-1-yl)cyclohexyl)methyl) benzamide Hydrochloride] gave an IC50 of 782 nM.
